Data taken from ChEMBL document CHEMBL6096706, “Discovery of WDR5-MLL1 and HDAC Dual-Target Inhibitors for the Treatment of Acute Myeloid Leukemia” (J Med Chem, 2025).
Activity calls are given as the source filed them.

Protein sequences, listed by entry. Tags and fused reporters are not part of them.
UniProt Q03164, whole entry, looked up: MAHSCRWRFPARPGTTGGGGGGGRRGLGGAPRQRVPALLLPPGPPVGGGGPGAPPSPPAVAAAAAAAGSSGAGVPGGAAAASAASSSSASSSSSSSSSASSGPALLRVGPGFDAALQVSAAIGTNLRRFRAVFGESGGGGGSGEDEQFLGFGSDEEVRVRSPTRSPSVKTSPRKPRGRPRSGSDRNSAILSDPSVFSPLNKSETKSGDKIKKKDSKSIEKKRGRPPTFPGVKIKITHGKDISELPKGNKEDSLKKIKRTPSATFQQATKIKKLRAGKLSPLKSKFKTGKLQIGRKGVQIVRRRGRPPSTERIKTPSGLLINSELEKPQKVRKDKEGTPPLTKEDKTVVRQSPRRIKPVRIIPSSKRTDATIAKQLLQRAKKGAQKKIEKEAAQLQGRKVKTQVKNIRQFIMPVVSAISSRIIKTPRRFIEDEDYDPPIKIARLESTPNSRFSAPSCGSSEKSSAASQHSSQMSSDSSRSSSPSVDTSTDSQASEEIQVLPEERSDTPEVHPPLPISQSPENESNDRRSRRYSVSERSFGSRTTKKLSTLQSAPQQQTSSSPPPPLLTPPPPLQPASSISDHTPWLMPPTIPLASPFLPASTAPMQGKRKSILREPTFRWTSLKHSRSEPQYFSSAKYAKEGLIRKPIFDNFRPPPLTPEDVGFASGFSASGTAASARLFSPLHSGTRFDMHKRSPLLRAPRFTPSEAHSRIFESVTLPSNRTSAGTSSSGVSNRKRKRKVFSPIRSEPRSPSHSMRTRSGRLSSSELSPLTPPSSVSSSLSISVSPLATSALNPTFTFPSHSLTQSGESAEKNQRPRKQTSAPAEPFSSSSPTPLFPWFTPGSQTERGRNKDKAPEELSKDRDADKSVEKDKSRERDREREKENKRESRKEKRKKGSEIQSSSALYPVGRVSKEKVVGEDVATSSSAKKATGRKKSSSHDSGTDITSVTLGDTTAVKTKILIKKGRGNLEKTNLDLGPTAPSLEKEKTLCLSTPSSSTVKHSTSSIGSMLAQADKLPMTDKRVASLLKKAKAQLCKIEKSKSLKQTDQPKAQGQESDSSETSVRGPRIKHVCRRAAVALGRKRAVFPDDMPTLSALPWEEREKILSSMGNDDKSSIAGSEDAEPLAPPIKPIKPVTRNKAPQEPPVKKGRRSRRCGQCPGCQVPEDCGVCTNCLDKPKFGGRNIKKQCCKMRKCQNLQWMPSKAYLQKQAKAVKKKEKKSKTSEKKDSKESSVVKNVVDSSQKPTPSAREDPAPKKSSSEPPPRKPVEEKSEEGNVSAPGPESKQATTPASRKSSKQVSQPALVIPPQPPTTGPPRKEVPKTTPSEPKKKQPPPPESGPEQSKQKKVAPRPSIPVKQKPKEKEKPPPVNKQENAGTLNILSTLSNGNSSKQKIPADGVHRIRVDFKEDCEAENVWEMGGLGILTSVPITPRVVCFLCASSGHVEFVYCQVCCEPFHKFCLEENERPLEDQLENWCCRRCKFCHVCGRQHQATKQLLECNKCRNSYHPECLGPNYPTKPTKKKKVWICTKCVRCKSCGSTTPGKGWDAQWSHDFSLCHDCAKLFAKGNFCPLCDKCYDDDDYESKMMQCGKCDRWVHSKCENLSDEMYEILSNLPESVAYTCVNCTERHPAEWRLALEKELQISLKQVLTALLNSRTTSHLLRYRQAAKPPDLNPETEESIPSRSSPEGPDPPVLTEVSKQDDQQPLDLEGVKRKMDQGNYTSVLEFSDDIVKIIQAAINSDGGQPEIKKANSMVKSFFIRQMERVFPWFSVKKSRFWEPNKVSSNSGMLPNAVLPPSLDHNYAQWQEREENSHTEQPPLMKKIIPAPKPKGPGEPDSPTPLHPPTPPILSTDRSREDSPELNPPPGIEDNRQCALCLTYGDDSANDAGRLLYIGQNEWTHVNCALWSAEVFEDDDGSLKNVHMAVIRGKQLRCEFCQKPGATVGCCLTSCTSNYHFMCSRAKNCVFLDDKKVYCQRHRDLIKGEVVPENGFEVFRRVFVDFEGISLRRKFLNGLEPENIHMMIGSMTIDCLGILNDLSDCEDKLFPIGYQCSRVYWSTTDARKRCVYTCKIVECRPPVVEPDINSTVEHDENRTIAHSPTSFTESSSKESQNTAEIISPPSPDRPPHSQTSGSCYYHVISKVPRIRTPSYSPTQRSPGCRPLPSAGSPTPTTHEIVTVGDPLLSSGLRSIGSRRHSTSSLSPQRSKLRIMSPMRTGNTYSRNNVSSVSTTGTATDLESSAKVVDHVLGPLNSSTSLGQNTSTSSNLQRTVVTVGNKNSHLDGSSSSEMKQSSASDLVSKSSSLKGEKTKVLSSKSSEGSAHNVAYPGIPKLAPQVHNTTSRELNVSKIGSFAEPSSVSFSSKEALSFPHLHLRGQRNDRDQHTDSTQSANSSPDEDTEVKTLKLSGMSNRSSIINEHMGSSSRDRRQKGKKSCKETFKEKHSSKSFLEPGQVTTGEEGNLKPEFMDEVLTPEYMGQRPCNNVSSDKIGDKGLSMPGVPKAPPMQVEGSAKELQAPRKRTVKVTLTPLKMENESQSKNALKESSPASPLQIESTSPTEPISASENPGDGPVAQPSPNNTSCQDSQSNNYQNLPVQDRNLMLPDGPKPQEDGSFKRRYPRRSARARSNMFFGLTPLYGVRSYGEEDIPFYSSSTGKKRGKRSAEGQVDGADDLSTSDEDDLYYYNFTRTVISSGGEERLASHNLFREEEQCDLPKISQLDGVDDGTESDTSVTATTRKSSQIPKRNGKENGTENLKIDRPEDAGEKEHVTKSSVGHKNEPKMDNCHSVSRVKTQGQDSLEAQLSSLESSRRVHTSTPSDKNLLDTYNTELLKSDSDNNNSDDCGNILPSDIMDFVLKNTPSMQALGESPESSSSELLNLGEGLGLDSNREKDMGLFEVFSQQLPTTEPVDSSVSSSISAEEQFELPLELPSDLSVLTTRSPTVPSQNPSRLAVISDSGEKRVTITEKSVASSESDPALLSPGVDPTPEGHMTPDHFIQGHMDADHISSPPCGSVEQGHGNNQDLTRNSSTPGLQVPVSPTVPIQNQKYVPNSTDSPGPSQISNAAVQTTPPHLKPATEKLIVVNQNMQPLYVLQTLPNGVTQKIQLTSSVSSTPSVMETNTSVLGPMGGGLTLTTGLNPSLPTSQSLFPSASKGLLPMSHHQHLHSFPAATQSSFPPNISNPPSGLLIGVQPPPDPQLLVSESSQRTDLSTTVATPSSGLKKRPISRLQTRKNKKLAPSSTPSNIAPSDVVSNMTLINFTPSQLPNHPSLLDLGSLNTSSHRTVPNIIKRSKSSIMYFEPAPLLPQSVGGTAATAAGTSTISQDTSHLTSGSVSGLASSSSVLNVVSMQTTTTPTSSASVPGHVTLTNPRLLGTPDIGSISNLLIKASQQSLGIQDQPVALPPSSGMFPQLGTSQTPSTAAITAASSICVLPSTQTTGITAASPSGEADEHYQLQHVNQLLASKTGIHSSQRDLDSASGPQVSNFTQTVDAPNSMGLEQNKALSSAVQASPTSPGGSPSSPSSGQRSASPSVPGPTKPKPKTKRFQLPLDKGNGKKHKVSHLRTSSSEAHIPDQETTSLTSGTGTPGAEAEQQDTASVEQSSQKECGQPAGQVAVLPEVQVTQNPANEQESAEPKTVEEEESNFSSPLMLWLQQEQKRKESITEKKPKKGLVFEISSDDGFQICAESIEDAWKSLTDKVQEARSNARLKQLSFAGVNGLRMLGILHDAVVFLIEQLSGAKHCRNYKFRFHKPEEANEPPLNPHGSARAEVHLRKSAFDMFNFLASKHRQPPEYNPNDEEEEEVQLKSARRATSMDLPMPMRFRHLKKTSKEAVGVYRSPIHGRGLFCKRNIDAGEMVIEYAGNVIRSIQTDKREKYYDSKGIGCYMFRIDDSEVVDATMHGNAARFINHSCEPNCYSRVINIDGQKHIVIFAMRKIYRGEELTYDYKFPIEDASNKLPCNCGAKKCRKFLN

What was measured:
[1] = molecular target: T1, Histone-lysine N-methyltransferase 2A/WDR5 (Homo sapiens) (UniProt P61964+Q03164); assay: Inhibition of MLL1/WDR5 protein-protein interaction in human MV4-11 cells assessed as decrease in H3K4me1 level incubated for 48 hrs by Western blot analysis; type: cell-based
MV4-11 [2] = assay: Antitumor activity against human MV4-11 cells xenografted in mouse assessed as increase in number of TUNEL-positive cells in tumor at 10 to 30 mg/kg, ip administered daily for 17 days by Western blot analysis; type: functional, organism-based; conditions: dose 10-30 mg/kg, time 17.0 day
MV4-11 [3] = assay: Antitumor activity against human MV4-11 cells xenografted in mouse assessed as decrease in H3K4me level at 10 to 30 mg/kg, ip administered daily for 17 days by Western blot analysis; type: functional, organism-based; conditions: dose 10-30 mg/kg, time 17.0 day
MV4-11 [4] = assay: Antitumor activity against human MV4-11 cells xenografted in ip dosed mouse assessed as increase in AC-H3 level administered daily for 17 days by Western blot analysis; type: functional, organism-based; conditions: dose 10-30 mg/kg, time 17.0 day
[5] = molecular target: T1, Histone-lysine N-methyltransferase 2A/WDR5 (Homo sapiens); assay: Inhibition of MLL1/WDR5 protein-protein interaction in human MV4-11 cells assessed as decrease in H3K4me2 level incubated for 48 hrs by Western blot analysis; type: cell-based
MV4-11 [6] = assay: Antitumor activity against human MV4-11 cells xenografted in ip dosed mouse assessed as increase in AC-H4 level administered daily for 17 days by Western blot analysis; type: functional, organism-based; conditions: dose 10-30 mg/kg, time 17.0 day
MV4-11 [7] = assay: Downregulation of SULT1A3 mRNA expression in human MV4-11 cells by RT-PCR analysis; type: functional, cell-based
[8] = molecular target: T1, Histone-lysine N-methyltransferase 2A/WDR5 (Homo sapiens); assay: Inhibition of MLL1/WDR5 protein-protein interaction in human MV4-11 cells assessed as decrease in H3K4me3 level incubated for 48 hrs by Western blot analysis; type: cell-based

Cc1c(F)c(N)cc(C(=O)Nc2cc(-c3ccc(C(=O)NCc4ccc(/C=C/C(=O)NO)cc4)cc3)ccc2N2CCN(C)CC2)c1Cl
active: inhibition [1] | Activity (MV4-11 [2]) | Activity (MV4-11 [3]) | Activity (MV4-11 [4]) Dose-dependent-effect | inhibition [5] | Activity (MV4-11 [6]) Dose-dependent-effect | Activity (MV4-11 [7]) | inhibition [8]
